{"sequences": {"note": "The chains behind the UniProt entries cited, without tags or fusion partners. Where a name states a change or a piece, a line headed by the entry shows the natural chain unless it says otherwise.", "UniProt P15692": "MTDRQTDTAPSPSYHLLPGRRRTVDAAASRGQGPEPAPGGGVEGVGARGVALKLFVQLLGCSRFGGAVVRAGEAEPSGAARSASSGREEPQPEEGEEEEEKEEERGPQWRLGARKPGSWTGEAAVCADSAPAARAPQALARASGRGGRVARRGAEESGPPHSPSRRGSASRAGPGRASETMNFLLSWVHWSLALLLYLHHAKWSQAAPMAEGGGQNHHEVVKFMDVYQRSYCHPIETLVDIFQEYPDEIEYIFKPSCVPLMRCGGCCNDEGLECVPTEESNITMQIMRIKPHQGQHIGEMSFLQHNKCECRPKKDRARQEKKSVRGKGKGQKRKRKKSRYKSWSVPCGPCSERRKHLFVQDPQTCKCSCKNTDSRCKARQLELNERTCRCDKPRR"}, "source": "patent US20230374072A1", "about": "(priority 2020, published 2023)", "key": {"[1]": {"molecular_target": "VEGF165 (Homo sapiens, UniProt P15692)", "assay": "recognition ELISA assay, interaction with VEGF165", "settings": "compared with parental vNAR, FIG. 2"}, "[2]": {"molecular_target": "VEGF (Homo sapiens, UniProt P15692)", "assay": "in vitro neutralization assay, HUVEC angiogenesis with VEGF", "assay_type": "cell-based", "settings": "HUVEC cells plus VEGF; FIG. 3 and 4"}}, "data": [{"sequence": "GDCPPWCGARCKNLLPRYLVNGIAAMGYSSSC", "values": [{"measurement": "recognition of the antigen (interaction with VEGF165)", "setting": "[1]", "result": "has the ability to recognize the antigen"}, {"measurement": "inhibition of angiogenesis (VEGF neutralization)", "setting": "[2]", "result": "inhibits VEGF"}]}]}
